# Where “and” joins values, the source holds several entries; their conditions need not be identical. Equal entries are not always repeated. Only a part is listed here, and it is no random draw. Records with an inconclusive call do not appear. Calls of active or inactive are those of the source. Calls follow the shape of the dose curve; as a rule, active = well fitted inhibition curve with a large enough effect; inconclusive = small, poorly fitted or top-dose-only effect; inactive = flat fitted curve, though single readings scatter.
# Protein sequences, listed by entry. Tags and fused reporters are not part of them. Lines headed by an entry give the natural chain unless they say otherwise; changes in a name come on top.
# UniProt P15428: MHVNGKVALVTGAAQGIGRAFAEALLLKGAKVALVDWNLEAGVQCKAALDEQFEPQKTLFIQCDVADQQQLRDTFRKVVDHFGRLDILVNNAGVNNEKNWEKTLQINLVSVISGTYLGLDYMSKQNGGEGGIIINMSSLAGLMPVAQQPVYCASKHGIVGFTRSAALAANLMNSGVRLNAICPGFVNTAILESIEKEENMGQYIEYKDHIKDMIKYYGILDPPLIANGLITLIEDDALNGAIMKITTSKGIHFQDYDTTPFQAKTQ
# Target: 15-hydroxyprostaglandin dehydrogenase [NAD(+)] (Homo sapiens) (UniProt P15428)
# Test: Extended Characterization of HPGD Inhibitors: Activity in Primary Assay (HPGD)
# Details: recombinant HPGD, NADH fluorescence, PGE2 substrate
# From the text: The central role of HPGD is to inactivate prostaglandins such as prostaglandin E2 (PGE2) or prostaglandin D2 (PGD2). These prostaglandins are involved in a number of processes, including inflammation, differentiation, and cellular signaling, which makes HPGD an important target for pharmacological intervention. Inhibition of 15-PGDH (HPGD) activity was screened by utilizing prostaglandin as an electron donor and NAD+ as an electron acceptor/cofactor. An increase in the fluorescence intensity due to conversion of NAD+ to NADH was used to measure the enzyme activity. All compounds were screened using a qHTS approach, where compounds are assayed using at least seven concentrations to generate concentration-response curves for every compound. […]
# Three uL of enzyme (20 nM final concentration) were dispensed to 1536-well Greiner black solid bottom plates. […] The plates were immediately transferred to and read 4 times every 30 seconds on a ViewLux High-throughput CCD imager (Perkin-Elmer) using 340 nm excitation and 450 nm emission fluorescence protocol. The fluorescence intensity difference between the last and the first time points, normalized against controls, was used to compute reaction progress.
smiles,measurement,value
N#Cc1ccccc1CSc1nc2ncc(Br)cc2[nH]1,Potency,active: 121 nM and active: 96.1 nM and active: 48.2 nM
